{
  "source": "patent US20130190200A1",
  "about": "“SNP FOR PREDICTING THE SENSITIVITY TO ANTICANCER TARGETED THERAPEUTIC FORMULATION” (Korea Research Institute of Bioscience and Biotechnology, priority 2010, published 2013)",
  "key": {"[1]": {"system": "recurrent and metastatic colorectal cancer patients", "assay": "Clinical association analysis related to survival on subjects treated with anticancer targeted drugs", "type": "in vivo, human", "protocol": "(§1) Clinical association analysis was performed on 69 subjects treated with bevacizumab and 67 subjects treated with cetuximab, whose progress of treatment with the corresponding anticancer drugs were confirmed, to investigate the clinical association. The prediction of clinical outcomes of the corresponding patients was based on the NCCN surveillance guidelines (www.nccn.org), and the determination of chemosensitivity to anticancer drugs were based on the RECIST criteria (Therasse et al., J Natl Cancer Inst 2000; 92:205-16). The observation period for the corresponding patients was an average of 13 months (in a range of 1 to 39 month), which was considered as a sufficient period for the determination of the results when considering that these drugs were administered to recurrent and metastatic cancer patients.\nAssociation analysis was performed on the SNP genotypes sensitive to the individual anticancer drugs obtained in steps (1) and (2) in colorectal cancer patients whose treatment with the corresponding drugs was terminated. First, the association analysis was performed on the candidate SNP genotypes sensitive to the respective drugs in 69 patients treated with bevacizumab and 67 patients treated with cetuximab, including 98 recurrent and metastatic cancer patients with crossover treatment."}, "[2]": {"system": "metastatic cancer patients", "assay": "Clinical association analysis of drug response (RECIST criteria) on subjects treated with anticancer targeted drugs", "type": "in vivo, human", "settings": "homozygous reference alleles of DFNB31 rs2274159 and LIFR rs3729740; P=0.023, 0.049", "protocol": "as §1"}},
  "data": [
    {"substance": "cetuximab", "values": [
      {"measurement": "sensitivity and survival, in words (FIG. 3)", "setting": "[1]; homozygous reference alleles of ISX rs361863 vs homozygous or heterozygous substitution alleles", "result": "greater sensitivity and longer progression-free survival"},
      {"measurement": "mean progression-free survival (PFS)", "setting": "[1]; patients carrying homozygous reference alleles of ISX rs361863, P=0.046 vs substitution alleles", "result": "8.5±1.2", "unit": "months"},
      {"measurement": "mean progression-free survival (PFS)", "setting": "[1]; patients with homozygous or heterozygous substitution alleles of ISX rs361863, P=0.046", "result": "4.4±0.5", "unit": "months"},
      {"measurement": "objective response rate and disease-control response rate, in words", "setting": "[2]", "result": "significantly high objective response rate (partial disease+complete response) and disease-control response rate"}
    ]}
  ]
}
